Earlier results in paper PMC2861614.

Target: GFP (Aequorea victoria) [GFP: P42212]

GFP (from UniProt P42212)
Kd: 100 µM
